Tested on: L-FABP
Experiment: Immunological determination of L-FABP by Western blotting in liver extracts of exposed rats
Conditions: rat liver extract, high dosage, 10 days, versus control after 10 days

For WY 14,643, the “L-FABP level by Western blotting” value was “tendency to a slight increase”.
In the case of `Cc1c([N+](=O)[O-])cccc1[N+](=O)[O-]`, the “L-FABP level by Western blotting” value is reported as “decrease in L-FABP”.
